Key:
[1] = molecular target: EGFR L858R/T790M (H1975 cells) (Homo sapiens (Human), UniProt P00533, L858R/T790M); experiment: EGFR signaling (1 hr) immunoblot, H1975 cells; assay type: cell-based; settings: 1 hr treatment, pEGFR
Method: (§1) A431 human epidermoid carcinoma, H1975 human NSCLC and HCC827 human NSCLC adenocarcinoma cells were obtained from the American Type Culture Center (Manassas, Va.). A431 cells were grown in DMEM (Invitrogen, Carlsbad, Calif.) supplemented with 10% FBS (HyClone, South Logan, Utah) and 1% Penicillin-Streptomycin (P/S, Lonza, Walkersville, Md.).
(§2) All primary antibodies were obtained from Cell Signaling (Danvers, Mass.) and used at 1:1000. Secondary antibodies were used at 1:10,000. Goat anti-mouse IgG IRDye 800CW antibody was obtained from LiCor Biosciences (Lincoln, Nebr.) and goat anti-rabbit IgG Alexa Fluor 680 was obtained from Invitrogen.
(§3) Cells were grown in 12-well plates (Corning, Coring, N.Y.) to 90% confluence and then incubated in low-serum (0.1% FBS) media for 16-18 hr. […] A431 cells were then stimulated with 50 ng/ml EGF (Peprotech, Rocky Hill, N.J.) for 15 min. After treatment, cell monolayers were washed with cold PBS (Invitrogen) and immediately lysed by scrapping into 60 uL cold Cell Extraction Buffer (Invitrogen) supplemented with Complete Protease inhibitors (Roche, Indianapolis, Ind.) and PhosphoSTOP (Roche) phosphatase inhibitors.
(§4) Phospho-protein signals were quantitated using Odyssey Infrared Imaging (Li-Cor Biosciences).
(§5) Blots were normalized as indicated above. […] Normalized data was fitted using a sigmoidal curve analysis program (Graph Pad Prism version 5) with variable Hill slope to determine the EC50 values.

Protein sequences, listed by entry. Tags and fused reporters are not part of them. Chains listed by the source or under a name are the forms on record and can include a tag or linker. Residues count along the entry.
UniProt P00533, 25-1210 T790M/L858R: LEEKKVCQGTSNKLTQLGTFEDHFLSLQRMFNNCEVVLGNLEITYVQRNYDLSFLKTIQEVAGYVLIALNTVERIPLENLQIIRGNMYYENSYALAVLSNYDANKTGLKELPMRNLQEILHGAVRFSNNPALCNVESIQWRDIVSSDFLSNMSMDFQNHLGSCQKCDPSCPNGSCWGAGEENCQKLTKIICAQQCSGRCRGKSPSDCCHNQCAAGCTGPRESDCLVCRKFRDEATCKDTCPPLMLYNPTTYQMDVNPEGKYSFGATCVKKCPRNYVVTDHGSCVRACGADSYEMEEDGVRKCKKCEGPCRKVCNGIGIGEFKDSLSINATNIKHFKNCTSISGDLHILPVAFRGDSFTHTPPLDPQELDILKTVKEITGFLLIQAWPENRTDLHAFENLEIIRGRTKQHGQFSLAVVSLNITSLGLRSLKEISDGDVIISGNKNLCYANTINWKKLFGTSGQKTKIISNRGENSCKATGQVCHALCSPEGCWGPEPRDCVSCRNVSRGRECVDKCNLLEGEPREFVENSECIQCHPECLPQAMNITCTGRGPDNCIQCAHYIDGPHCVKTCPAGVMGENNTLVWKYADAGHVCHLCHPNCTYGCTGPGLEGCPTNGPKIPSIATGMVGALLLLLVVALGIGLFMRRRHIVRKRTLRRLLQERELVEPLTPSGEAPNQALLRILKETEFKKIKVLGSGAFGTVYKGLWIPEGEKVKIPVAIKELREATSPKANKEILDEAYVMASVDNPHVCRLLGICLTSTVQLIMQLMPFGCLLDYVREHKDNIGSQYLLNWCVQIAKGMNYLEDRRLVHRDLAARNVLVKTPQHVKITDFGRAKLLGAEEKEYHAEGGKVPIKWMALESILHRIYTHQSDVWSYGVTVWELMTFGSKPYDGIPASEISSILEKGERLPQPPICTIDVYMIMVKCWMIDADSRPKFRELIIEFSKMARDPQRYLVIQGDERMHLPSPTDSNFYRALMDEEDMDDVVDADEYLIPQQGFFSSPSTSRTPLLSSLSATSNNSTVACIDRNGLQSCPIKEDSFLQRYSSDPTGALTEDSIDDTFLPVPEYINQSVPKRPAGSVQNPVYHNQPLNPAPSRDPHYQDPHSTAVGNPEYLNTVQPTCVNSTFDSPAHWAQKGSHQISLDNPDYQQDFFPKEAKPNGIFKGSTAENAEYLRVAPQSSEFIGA
UniProt P00533, 25-1210: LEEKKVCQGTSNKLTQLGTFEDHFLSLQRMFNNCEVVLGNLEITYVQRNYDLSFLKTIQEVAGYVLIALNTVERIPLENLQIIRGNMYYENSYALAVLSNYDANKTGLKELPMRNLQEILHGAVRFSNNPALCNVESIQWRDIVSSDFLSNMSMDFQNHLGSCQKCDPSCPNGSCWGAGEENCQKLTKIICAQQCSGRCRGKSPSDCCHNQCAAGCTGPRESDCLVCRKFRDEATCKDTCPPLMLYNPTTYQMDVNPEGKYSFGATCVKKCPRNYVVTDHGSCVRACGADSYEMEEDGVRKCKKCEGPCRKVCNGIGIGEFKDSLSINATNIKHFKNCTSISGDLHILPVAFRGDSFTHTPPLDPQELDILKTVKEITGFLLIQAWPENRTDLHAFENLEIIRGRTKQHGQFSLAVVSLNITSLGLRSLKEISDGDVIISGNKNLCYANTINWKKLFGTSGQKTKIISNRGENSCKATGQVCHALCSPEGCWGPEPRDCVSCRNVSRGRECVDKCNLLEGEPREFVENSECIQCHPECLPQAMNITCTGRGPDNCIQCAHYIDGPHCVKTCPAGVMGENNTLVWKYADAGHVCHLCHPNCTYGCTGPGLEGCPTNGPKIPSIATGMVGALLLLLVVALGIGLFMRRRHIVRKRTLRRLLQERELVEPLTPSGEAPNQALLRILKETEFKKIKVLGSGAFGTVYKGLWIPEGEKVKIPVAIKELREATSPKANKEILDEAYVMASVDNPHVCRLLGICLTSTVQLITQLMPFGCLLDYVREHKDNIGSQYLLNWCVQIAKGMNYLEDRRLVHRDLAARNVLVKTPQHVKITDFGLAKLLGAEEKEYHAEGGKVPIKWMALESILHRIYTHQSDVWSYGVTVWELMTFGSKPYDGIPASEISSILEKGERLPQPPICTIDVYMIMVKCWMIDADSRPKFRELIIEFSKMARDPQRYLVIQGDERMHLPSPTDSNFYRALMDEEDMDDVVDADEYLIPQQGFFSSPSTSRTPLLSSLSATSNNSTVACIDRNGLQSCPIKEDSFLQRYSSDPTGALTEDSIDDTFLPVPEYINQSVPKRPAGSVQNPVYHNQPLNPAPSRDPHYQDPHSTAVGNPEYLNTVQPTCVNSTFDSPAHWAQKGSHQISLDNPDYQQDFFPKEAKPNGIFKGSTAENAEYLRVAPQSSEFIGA
UniProt P00533, other isoform, or with tags, fused parts or gaps del 746-750: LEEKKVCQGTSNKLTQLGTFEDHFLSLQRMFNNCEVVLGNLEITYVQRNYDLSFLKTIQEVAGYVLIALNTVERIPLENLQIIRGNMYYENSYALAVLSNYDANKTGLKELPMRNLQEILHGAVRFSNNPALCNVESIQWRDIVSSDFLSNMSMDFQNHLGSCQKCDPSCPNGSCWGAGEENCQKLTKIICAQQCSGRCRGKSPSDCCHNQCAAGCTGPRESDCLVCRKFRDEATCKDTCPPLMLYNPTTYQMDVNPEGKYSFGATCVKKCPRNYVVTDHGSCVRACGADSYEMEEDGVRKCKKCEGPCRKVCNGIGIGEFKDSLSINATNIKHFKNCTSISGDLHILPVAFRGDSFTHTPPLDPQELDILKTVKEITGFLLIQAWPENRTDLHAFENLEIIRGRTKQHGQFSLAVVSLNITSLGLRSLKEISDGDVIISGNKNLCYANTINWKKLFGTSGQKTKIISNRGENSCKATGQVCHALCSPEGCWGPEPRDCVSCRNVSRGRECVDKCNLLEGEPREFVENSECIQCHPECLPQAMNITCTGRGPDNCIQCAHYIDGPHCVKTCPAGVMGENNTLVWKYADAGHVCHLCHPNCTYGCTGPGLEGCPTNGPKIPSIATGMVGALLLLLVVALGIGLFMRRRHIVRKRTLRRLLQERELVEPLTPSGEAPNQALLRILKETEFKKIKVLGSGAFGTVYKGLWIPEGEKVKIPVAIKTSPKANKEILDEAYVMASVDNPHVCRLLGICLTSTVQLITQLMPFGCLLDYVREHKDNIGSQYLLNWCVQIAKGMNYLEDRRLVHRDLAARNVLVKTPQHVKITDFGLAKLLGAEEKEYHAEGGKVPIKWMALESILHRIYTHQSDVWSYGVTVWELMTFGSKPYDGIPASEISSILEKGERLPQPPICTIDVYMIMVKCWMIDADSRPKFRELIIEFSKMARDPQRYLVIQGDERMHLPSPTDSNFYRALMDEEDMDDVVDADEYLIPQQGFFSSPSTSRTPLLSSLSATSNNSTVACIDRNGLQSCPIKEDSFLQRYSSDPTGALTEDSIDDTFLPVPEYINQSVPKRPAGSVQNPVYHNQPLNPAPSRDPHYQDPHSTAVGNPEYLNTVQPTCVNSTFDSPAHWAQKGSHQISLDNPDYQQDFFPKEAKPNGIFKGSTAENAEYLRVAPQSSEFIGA

EGFR T790M/L858R = EGFR T790M/L858R (Homo sapiens (Human), UniProt P00533, L858R/T790M); experiment: Omnia assay, EGFR (T790M/L858R) active enzyme; assay type: biochemical; settings: [EGFR-T790M/L858R]=2.5 nM, [ATP]=20 uM; 30 min pre-incubation
WT EGFR (A431 cells) = WT EGFR (A431 cells) (Homo sapiens (Human), UniProt P00533); experiment: EGFR signaling (1 hr) immunoblot, A431 cells; assay type: cell-based; settings: 1 hr treatment, EGF stimulated, pEGFR
Method: as §1, §2, §3, §4, §5

EGFR-WT = EGFR-WT (Homo sapiens (Human), UniProt P00533); experiment: Omnia assay, EGFR (WT) active enzyme; assay type: biochemical; settings: [EGFR-WT]=5 nM, [ATP]=15 uM; 30 min pre-incubation
[2] = molecular target: EGFR delE746-A750 (HCC827 cells) (Homo sapiens (Human), UniProt P00533, DEL746-750); experiment: EGFR signaling (1 hr) immunoblot, HCC827 cells; assay type: cell-based; settings: 1 hr treatment, pEGFR
Method: as §1, §2, §3, §4, §5

EC50 [1] [nM]	IC50 (EGFR T790M/L858R) [nM]	EC50 (WT EGFR (A431 cells)) [nM]	IC50 (EGFR-WT) [nM]	EC50 [2] [nM]	Compound
100 to 500	1 to 10	> 1000	30 to 100		C=CC(=O)Nc1cccc(Nc2nc(Nc3ccc(OC)c(OC)c3OC)ncc2Cl)c1 [Compound I-4, N-(3-(5-chloro-2-(2,3,4-trimethoxyphenylamino)pyrimidin-4-ylamino)phenyl)acrylamide]
10 to 100	1 to 10	> 1000	100 to 300		C=CC(=O)Nc1cccc(Oc2nc(Nc3ccc(OC)cc3OC)ncc2C(F)(F)F)c1 [Compound I-9, N-(3-(2-(2,4-dimethoxyphenylamino)-5-(trifluoromethyl)pyrimidin-4-yloxy)phenyl)acrylamide]
100 to 500	1 to 10	> 1000	30 to 100		C=CC(=O)Nc1cccc(Oc2nc(Nc3ccc(OC)cc3OC)ncc2Br)c1 [Compound I-13, N-(3-(5-bromo-2-(2,4-dimethoxyphenylamino)pyrimidin-4-yloxy)phenyl)acrylamide]
100 to 500	1 to 10	> 1000	100 to 300		C=CC(=O)Nc1cccc(Oc2nc(Nc3ccc(OC)cc3OC)ncc2Cl)c1 [Compound I-15, N-(3-(5-chloro-2-(2,4-dimethoxyphenylamino)pyrimidin-4-yloxy)phenyl)acrylamide]
100 to 500	1 to 10	> 1000	100 to 300	< 10	C=CC(=O)Nc1cccc(Nc2nc(Nc3cccc(OC)c3OC)ncc2C(F)(F)F)c1 [Compound I-16, N-(3-(2-(2,3-dimethoxyphenylamino)-5-(trifluoromethyl)pyrimidin-4-ylamino)phenyl)acrylamide]
100 to 500	1 to 10	> 1000	100 to 300	> 1000	C=CC(=O)Nc1cccc(Nc2nc(Nc3ccccc3OC)ncc2Br)c1 [Compound I-22, N-(3-(5-bromo-2-(2-methoxyphenylamino)pyrimidin-4-ylamino)phenyl)acrylamide]

Compound	EC50 [1] [nM]	IC50 (EGFR T790M/L858R) [nM]	EC50 (WT EGFR (A431 cells)) [nM]	IC50 (EGFR-WT) [nM]	EC50 [2] [nM]
C=CC(=O)Nc1cccc(Oc2nc(Nc3ccccc3OC)ncc2C(F)(F)F)c1 [Compound I-2, N-(3-(2-(2-methoxyphenylamino)-5-(trifluoromethyl)pyrimidin-4-yloxy)phenyl)acrylamide]	10 to 100	1 to 10	> 1000	100 to 300	< 10
C=CC(=O)Nc1cccc(Oc2nc(Nc3cccc(OC)c3OC)ncc2C(F)(F)F)c1 [Compound I-23, N-(3-(2-(2,3-dimethoxyphenylamino)-5-(trifluoromethyl)pyrimidin-4-yloxy)phenyl)acrylamide]	> 1000	10 to 30	> 1000	> 1000	

Reference: US9238629B2, “Heteroaryl compounds and uses thereof” (Celgene Avilomics Research, Inc., priority 2010, dated 2016)
